The list shows a part of the results, in another mix than the full data. Some of these compounds have results that are not shown, active ones among them. The source made the active and inactive calls.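 How the source made its calls: active means activation factor of 2 or more at 20 µM; inactive means the rest.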

Chains of the proteins cited; added tags and fusions are not shown.
UniProt P34949, whole entry: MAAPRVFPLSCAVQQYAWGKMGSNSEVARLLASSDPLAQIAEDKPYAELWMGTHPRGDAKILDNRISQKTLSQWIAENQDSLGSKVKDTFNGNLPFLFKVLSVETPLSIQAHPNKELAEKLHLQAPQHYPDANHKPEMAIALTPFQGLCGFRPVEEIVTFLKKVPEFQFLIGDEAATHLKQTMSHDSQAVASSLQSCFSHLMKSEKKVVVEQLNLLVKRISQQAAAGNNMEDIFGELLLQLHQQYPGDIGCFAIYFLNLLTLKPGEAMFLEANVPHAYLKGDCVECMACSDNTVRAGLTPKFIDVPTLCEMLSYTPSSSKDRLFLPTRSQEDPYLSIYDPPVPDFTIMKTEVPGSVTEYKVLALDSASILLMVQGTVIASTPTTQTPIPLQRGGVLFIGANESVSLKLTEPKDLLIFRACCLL

Activation factor data for nine molecules are collected here from PubChem BioAssay AID1216 (Sanford-Burnham Center for Chemical Genomics, 2008).

For the test, the target named is Mannose-6-phosphate isomerase (Homo sapiens) (UniProt P34949). In words: human PMI activators, high substrate, primary screen, biochemical, fluorescence intensity, near-saturating mannose 6-phosphate (AID 1216). The note with it: coupled PMI enzyme assay, resazurin fluorescence, 20 min; at 20 µM; hits give high values; 1 = untreated enzyme, 0 = substrate-free blank. An outline of the steps:
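Test system: human phosphomannose isomerase with PGI, G6PDH, diaphorase coupling enzymes; Amount: PMI at 15 ng/mL final; Reagent: Mannose-6-phosphate 1.0 mM (near-saturating) plus 0.22 mM NADP+; Timing: 20 min, room temperature; Technique: resorufin fluorescence at Ex 544/Em 590 nm; Dosing: 20 µM single dose.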
In the case of `COc1cccc(C(=O)NCC2(N3CCCCC3)CCCCC2)c1`, the activation factor is inactive: 0.9. The figure for `CN(C)c1cccc(C(=O)NCC2(N(C)C)CCCCC2)c1` is inactive: 0.9; for `O=C(OC1CN2CCC1CC2)C(CO)(c1ccccc1)c1ccccc1` (centres undefined) it is inactive: 1; for `CC(C)N1C(=O)CC2(CCN(CCOC(=O)C(O)(c3ccccc3)c3ccccc3)CC2)C1=O` it is inactive: 1.1. The figure for `O=C(NCC1(N2CCCCC2)CCCCC1)c1cc([N+](=O)[O-])ccc1Cl` is inactive: 1.1; for `CCN1CCCC(OC(=O)C2(O)c3ccccc3C=Cc3ccccc32)C1` (centres undefined) it is inactive: 1.

Consider `C=CCN1CCN(CCOC(=O)C(O)(c2ccccc2)c2ccccc2)CC1`, for which the activation factor is inactive: 1.1.

For the molecule `Cc1ccccc1C(=O)NCC1(N2CCCCC2)CCCCC1`, the activation factor was inactive: 1. The figure for `CN(C)C1CCCC1OC(=O)C(O)(c1ccccc1)c1ccccc1` (centres undefined) is inactive: 1.1.
